Here are results for one compound from ChEMBL document CHEMBL1122942, “Conformationally defined adrenergic agents. 1. Design and synthesis of novel alpha 2 selective adrenergic agents: electrostatic repulsion based conformational prototypes” (J Med Chem, 1985).

Protein sequences, listed by entry. Tags and fused reporters are not part of them. Lines headed by an entry give the natural chain unless they say otherwise; changes in a name come on top.
UniProt P22086: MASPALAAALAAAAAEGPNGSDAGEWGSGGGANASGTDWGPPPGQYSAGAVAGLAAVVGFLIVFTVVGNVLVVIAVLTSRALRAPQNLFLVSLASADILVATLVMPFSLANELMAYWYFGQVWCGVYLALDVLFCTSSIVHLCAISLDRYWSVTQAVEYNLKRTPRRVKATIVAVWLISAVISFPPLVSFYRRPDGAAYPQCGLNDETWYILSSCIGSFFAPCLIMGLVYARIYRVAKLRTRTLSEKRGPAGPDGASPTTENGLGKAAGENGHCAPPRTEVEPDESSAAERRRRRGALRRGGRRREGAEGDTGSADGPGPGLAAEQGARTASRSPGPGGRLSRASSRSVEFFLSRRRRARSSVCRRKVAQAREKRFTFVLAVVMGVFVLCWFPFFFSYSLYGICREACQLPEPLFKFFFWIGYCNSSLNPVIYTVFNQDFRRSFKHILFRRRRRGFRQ
UniProt P19328: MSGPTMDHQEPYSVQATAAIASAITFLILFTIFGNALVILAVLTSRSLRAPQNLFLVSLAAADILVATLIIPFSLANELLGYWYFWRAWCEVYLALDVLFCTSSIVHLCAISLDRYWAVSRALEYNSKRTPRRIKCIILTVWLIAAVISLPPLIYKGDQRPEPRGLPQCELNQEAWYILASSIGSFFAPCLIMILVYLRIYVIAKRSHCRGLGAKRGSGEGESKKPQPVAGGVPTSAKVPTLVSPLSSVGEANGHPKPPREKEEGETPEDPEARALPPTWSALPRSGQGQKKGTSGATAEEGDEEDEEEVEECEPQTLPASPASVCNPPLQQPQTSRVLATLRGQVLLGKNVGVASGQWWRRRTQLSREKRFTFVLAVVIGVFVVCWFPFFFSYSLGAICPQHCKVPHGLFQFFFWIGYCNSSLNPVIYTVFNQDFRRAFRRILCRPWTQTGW
UniProt P22909: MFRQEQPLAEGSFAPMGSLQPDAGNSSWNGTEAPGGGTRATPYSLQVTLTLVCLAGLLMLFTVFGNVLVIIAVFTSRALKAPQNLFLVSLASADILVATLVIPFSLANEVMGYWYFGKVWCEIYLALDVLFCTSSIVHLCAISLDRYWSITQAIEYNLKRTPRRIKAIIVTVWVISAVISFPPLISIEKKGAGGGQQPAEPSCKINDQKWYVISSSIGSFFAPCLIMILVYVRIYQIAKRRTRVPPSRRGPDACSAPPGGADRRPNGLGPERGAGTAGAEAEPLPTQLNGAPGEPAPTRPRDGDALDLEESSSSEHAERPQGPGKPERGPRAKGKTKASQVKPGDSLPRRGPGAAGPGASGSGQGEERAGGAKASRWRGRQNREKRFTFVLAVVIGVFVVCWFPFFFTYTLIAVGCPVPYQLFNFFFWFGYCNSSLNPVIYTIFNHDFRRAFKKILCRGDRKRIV

In general, Ki refers to the equilibrium dissociation constant of an inhibitor or competing ligand from its target. A low value points to a stronger hold on the target.

Structures are written as SMILES.

The experiment has as its target Adrenergic receptor alpha-2 (Rattus norvegicus, UniProt P22086+P19328+P22909). Put plainly: Binding affinity towards alpha-2 adrenergic receptor in rat using [3H]rauwolscine as radioligand. Summed up: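 Male Sprague-Dawley rat cerebral cortex membranes (50-150 µg/mL protein) in 50 mM Tris-HCl pH 7.7 with [3H]rauwolscine. Incubated 2 h at 4 °C; phentolamine 10^-5 M defined nonspecific binding. At least four concentrations from 10^-10 to 10^-3 M, each in duplicate. Bound ligand was filtered and counted by scintillation.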

With `Brc1c(NC2=NCCN2)ccc2nccnc12` [BRIMONIDINE], the Ki is 30 nM.
